Assay results reported in article PMC8645912 (ESMO Open, 2021).
Like-named read-outs stand apart in the source and are kept apart here.

Key:
[1] = cited from earlier work
[2] = Cabozantinib plasma PK monitoring; assay type: in vivo, human; conditions: whole population; from population PK model

Mean Cl/F (SD) [2]: 2.5 (1.2) l/h
Median Cl/F (IQR) [2]: 2.3 (1.7-3.2) l/h
SMILES: COc1cc2nccc(Oc3ccc(NC(=O)C4(C(=O)Nc5ccc(F)cc5)CC4)cc3)c2cc1OC [cabozantinib]
Hazard ratio for risk of progression versus 60 mg daily starting dose ([1]; 20 mg starting dose): 1.39
Hazard ratio for risk of progression versus 60 mg daily starting dose ([1]; 40 mg starting dose): 1.10
Hazard ratio for risk of dose modification (DM) ([1]; lower Cl/F (1.3 l/h) versus standard Cl/F (2.3 l/h)): 2.07
